Earlier results, collected in article PMC10818749, “Toxicity Studies of Cardiac-Targeting Peptide Reveal a Robust Safety Profile” (Pharmaceutics, 2024).

Tested on: Chinese hamster ovarian cell line
Conditions: cited from earlier work
[1] = cell lysates, liquid chromatography–mass spectrometry, ref [53]

## transportan
5 µM, not at higher treatment concentrations, ref [52]
  recovery of cells from the effects: could recover
[1]
  changes to cell metabolism (rank): most significant changes
  metabolic effects: affected cellular redox potential, depleted energy, and the pools of purines/pyrimidines
